Reference: ChEMBL document CHEMBL4118068 (Eur J Med Chem, 2017)

The chains behind the UniProt entries cited, without tags or fusion partners.
UniProt P08912, whole entry: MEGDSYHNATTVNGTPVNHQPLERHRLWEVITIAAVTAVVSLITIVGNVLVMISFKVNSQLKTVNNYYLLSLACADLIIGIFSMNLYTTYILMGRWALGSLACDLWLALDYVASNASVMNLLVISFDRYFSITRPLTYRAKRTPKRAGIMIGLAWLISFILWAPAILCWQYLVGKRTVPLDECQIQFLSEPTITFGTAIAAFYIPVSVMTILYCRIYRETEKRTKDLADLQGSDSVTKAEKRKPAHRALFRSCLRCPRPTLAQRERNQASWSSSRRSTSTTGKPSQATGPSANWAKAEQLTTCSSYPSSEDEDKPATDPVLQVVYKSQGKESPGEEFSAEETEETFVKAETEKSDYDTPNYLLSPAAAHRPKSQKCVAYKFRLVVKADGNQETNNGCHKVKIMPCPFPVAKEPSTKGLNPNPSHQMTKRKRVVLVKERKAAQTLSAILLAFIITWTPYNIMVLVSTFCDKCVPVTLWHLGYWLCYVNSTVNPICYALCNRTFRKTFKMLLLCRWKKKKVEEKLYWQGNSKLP
UniProt P08172, whole entry: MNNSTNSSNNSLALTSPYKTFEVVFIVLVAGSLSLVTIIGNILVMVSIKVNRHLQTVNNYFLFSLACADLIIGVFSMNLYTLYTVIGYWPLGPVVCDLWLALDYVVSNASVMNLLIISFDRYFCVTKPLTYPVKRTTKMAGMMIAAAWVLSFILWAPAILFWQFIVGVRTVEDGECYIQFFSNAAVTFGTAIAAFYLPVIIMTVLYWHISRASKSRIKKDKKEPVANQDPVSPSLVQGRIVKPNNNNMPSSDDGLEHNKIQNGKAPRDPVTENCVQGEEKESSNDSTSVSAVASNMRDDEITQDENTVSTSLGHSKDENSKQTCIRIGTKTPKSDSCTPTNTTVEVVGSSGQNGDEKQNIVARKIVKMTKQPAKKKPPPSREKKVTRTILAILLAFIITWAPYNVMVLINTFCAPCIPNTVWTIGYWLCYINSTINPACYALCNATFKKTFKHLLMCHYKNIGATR
UniProt P20309, whole entry: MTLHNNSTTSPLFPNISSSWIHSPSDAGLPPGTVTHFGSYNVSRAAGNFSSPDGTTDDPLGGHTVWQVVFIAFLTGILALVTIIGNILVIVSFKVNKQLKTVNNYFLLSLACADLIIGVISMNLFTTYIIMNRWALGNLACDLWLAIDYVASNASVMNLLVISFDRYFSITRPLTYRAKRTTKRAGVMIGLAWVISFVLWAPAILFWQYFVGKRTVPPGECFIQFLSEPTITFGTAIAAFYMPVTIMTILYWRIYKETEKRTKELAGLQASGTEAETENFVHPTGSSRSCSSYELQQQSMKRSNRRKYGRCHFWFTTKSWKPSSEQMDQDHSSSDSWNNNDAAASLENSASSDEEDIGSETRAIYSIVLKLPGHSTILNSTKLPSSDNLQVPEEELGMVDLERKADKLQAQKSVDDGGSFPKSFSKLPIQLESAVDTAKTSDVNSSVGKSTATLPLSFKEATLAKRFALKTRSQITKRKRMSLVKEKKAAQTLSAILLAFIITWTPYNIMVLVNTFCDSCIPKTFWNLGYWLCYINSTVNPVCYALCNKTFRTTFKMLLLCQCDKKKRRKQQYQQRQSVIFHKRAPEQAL
UniProt P08173, whole entry: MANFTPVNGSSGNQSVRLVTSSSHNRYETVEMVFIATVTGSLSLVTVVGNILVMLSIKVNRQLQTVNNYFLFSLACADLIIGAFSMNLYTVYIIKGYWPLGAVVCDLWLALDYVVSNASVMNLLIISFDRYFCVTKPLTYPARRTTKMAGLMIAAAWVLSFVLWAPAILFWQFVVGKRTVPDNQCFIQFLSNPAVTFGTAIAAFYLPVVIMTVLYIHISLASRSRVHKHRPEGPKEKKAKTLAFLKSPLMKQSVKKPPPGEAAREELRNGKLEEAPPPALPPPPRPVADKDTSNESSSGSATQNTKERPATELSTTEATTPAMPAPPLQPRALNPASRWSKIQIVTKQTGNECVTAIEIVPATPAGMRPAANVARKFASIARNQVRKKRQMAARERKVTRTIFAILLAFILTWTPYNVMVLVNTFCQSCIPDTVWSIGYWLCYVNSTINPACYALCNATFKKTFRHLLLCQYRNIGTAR
UniProt P11229, whole entry: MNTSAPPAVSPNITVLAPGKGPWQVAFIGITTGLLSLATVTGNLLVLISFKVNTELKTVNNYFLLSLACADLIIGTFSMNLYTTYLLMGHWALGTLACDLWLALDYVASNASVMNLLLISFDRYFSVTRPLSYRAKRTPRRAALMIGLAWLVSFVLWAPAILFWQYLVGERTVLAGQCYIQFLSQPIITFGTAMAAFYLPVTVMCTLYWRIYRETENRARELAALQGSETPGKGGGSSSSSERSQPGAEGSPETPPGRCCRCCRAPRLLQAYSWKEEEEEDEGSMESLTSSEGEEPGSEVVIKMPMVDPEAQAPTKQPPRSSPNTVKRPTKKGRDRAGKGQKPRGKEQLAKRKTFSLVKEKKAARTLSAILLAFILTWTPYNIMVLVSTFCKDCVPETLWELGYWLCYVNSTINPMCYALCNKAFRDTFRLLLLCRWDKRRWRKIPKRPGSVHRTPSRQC

Columns and labels:
[1] = target: Muscarinic acetylcholine receptor M5 (Homo sapiens, UniProt P08912); test: Displacement of [3H]NMS from recombinant human muscarinic M5 receptor expressed in CHOK1 cell membranes after 120 mins by scintillation counting method
[2] = target: Muscarinic acetylcholine receptor M2 (Homo sapiens, UniProt P08172); test: Displacement of [3H]NMS from recombinant human muscarinic M2 receptor expressed in CHOK1 cell membranes after 120 mins by scintillation counting method
[3] = target: Muscarinic acetylcholine receptor M3 (Homo sapiens, UniProt P20309); test: Displacement of [3H]NMS from recombinant human muscarinic M3 receptor expressed in CHOK1 cell membranes after 120 mins by scintillation counting method
[4] = target: Muscarinic acetylcholine receptor M4 (Homo sapiens, UniProt P08173); test: Displacement of [3H]NMS from recombinant human muscarinic M4 receptor expressed in CHOK1 cell membranes after 120 mins by scintillation counting method
[5] = target: Muscarinic acetylcholine receptor M1 (Homo sapiens, UniProt P11229); test: Displacement of [3H]NMS from recombinant human muscarinic M1 receptor expressed in CHOK1 cell membranes after 120 mins by scintillation counting method

SMILES | pKi [1] | pKi [2] | pKi [3] | pKi [4] | pKi [5]
C[C@]1(C(=O)O[C@H]2CN3CCC2CC3)COCC(c2ccccc2)(c2ccccc2)O1 | 6.44 | 6.8 | 6.4 | 6.85 | 7.17
C[C@@]1(C(=O)O[C@H]2CN3CCC2CC3)COCC(c2ccccc2)(c2ccccc2)O1 | 6.33 | 6.7 | 6.38 | 6.75 | 6.92
C[C@@]1(C(=O)O[C@@H]2CN3CCC2CC3)COCC(c2ccccc2)(c2ccccc2)O1 | 5.89 | 5.81 | 5.79 | 5.56 | 6.18
